The entries are a selection whose mix differs from that of the whole data set. Some results for these compounds are left out of this collection, so the calls shown say nothing about other tests. Results filed as inconclusive are left out. Activity calls are given as the source filed them. Calls come from the whole dose curve; as a rule, active = well fitted activation curve with a large enough effect; inconclusive = small, poorly fitted or top-dose-only effect; inactive = no such curve, though single readings can be large or run the other way.
Test: qHTS Assay for Agonists of the Thyroid Stimulating Hormone Receptor: Activators of Intracellular cAMP Concentrations in Parental HEK 293; note: % of control where 0% means no effect; nearly all actives have a fitted effect of over 55% in size
Details: parental HEK293 CNG cAMP sensor, membrane potential fluorescence; at 11.4 µM unless noted

Row | Compound | activation
1 | CN1CCC[C@H](OC(=O)[C@](O)(c2ccccc2)C2CCCC2)C1 | inactive: 7.83%
2 | CN1CC[C@H](OC(=O)[C@](O)(c2ccccc2)C2CCCC2)C1 | inactive: 7.52%
3 | C=C(C)C#C[C@@](O)(C(=O)OC1CCN(C)CC1)c1ccccc1 | inactive: 9.65%
4 | CN(C)c1cccc(C(=O)NCC2(N(C)C)CCCCC2)c1 | inactive: 7.17% [at 57.1 µM]

Reference: PubChem BioAssay AID938 (National Center for Advancing Translational Sciences (NCATS), 2007)
